Holding throughout (format): cell-based
One assay concerns the target EGFR WT (Ba/F3 cells) (Homo sapiens, UniProt P00533). The assay can be described thus: Inhibitor activity on EGFR-dependent cell growth (CellTiter-Glo, 72 h), Ba/F3 EGFR WT. The following applies: read-out: BaF3 WT IC50.
In assay [1] the target is EGFR exon 20 FQEA Ins A763_V764 (Ba/F3 cells) (Homo sapiens, UniProt P00533, INS763FQEA). In words: Inhibitor activity on EGFR-dependent cell growth (CellTiter-Glo, 72 h), Ba/F3 EGFR exon 20 FQEA Ins. The following applies: read-out: BaF3 FQEA IC50.
For assay [2], the target named is T1, EGFR exon 20 ASV Ins V769_D770 (Ba/F3 cells) (Homo sapiens, UniProt P00533, INS769ASV). The assay can be described thus: Inhibitor activity on EGFR-dependent cell growth (CellTiter-Glo, 72 h), Ba/F3 EGFR exon 20 ASV Ins. The following applies: read-out: BaF3 ASV IC50.
Assay [3] concerns the target EGFR exon 20 SVD Ins D770_N771 (Ba/F3 cells) (Homo sapiens, UniProt P00533, INS770SVD). The assay can be described thus: Inhibitor activity on EGFR-dependent cell growth (CellTiter-Glo, 72 h), Ba/F3 EGFR exon 20 SVD Ins. As to conditions: read-out: BaF3 SVD IC50. (In general: Cellular ATP, detected with luciferase, serves as a proxy for viable cell number.)
Assay [4] addresses T2, EGFR exon 20 NPG Ins D770_N771 (Ba/F3 cells) (Homo sapiens, UniProt P00533, INS770NPG). In words: Inhibitor activity on EGFR phosphorylation (pEGFR AlphaLISA, 2 h), Ba/F3 EGFR exon 20 NPG Ins. As to conditions: read-out: NPG IC50 (pEGFR). An excerpt:
Example B. Inhibitor Activity on EGFR phosphorylation (pEGFR)
EGFR mutant Ba/F3 cells were generated by transduction with retrovirus containing vectors expressing EGFR L858R, EGFR exon 19del, EGFR L858R/C797S, EGFR exon 20 NPG Ins D770_N771, EGFR exon 20 ASV Ins V769_D770, or EGFR exon 20 SVD Ins D770_N771 genes along with a puromycin selection marker. Transduced cells are selected with puromycin for 7 days and are then be transferred into culture media without Interleukin 3 (IL3). Surviving cells are confirmed to express EGFR by Western blot and maintained as a pool. CUTO14 cells were obtained from Dr. Robert C. Doebele at the University of Colorado. The IC50 date are included in Table 6 and Table 7.
1.1 Cells are harvested from flask into cell culture medium and the cell number counted.
1.2 Cells are diluted with culture medium to the desired density and 40 μL of cell suspension is added into each well of 384-well cell culture plate and the seeding density is 50K cells/well (Ba/F3) or 12.5K cells/well (CUTO14).
2 Compound Preparation and Treatment
2.1 Test compounds are dissolved to 10 mM in a DMSO stock solution. 45 μL of stock solution is transferred to a 384 polypropylene plate (pp-plate). Perform 3-fold, 10-point dilution via transferring 15 μL compound into 30 μL DMSO using a TECAN (EVO200) liquid handler. […]
3.5 Transfer 18.5 μL mixture to OptiPlate 384, and read using an Envision. […]

Protein sequences, listed by entry. Tags and fused reporters are not part of them. Chains listed by the source or under a name are the forms on record and can include a tag or linker. Residues count along the entry.
UniProt P00533, with tags, fused parts or gaps INS769ASV limits assumed: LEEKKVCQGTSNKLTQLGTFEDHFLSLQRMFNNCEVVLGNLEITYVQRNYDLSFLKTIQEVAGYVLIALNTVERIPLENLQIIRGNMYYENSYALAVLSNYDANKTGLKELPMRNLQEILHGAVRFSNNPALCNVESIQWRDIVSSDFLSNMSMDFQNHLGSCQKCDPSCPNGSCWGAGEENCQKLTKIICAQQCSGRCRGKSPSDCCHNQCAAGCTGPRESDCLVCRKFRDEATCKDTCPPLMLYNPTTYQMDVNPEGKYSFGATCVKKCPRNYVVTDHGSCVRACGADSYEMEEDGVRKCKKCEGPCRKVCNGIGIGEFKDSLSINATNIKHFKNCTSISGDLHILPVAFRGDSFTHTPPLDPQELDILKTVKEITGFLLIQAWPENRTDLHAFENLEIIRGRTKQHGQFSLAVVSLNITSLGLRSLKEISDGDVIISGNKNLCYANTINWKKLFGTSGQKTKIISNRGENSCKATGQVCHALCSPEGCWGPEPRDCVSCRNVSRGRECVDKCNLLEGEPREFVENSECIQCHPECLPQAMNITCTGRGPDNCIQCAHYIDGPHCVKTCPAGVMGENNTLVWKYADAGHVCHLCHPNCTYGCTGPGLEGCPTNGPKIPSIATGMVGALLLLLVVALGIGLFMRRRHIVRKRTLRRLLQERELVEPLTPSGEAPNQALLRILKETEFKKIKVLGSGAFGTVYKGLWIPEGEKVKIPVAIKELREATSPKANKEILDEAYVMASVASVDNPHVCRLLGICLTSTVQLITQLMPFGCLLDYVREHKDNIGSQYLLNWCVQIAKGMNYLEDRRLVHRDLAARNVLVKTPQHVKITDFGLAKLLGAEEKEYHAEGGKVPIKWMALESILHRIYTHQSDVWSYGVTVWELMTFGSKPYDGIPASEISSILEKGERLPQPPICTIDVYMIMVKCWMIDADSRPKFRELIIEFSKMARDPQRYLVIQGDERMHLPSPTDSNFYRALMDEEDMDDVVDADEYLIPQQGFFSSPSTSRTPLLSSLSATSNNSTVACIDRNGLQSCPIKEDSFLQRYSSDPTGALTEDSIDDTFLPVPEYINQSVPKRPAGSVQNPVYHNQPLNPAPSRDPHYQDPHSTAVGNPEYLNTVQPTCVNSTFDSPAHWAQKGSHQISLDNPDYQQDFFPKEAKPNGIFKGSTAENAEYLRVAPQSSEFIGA
UniProt P00533, 25-1210 limits assumed: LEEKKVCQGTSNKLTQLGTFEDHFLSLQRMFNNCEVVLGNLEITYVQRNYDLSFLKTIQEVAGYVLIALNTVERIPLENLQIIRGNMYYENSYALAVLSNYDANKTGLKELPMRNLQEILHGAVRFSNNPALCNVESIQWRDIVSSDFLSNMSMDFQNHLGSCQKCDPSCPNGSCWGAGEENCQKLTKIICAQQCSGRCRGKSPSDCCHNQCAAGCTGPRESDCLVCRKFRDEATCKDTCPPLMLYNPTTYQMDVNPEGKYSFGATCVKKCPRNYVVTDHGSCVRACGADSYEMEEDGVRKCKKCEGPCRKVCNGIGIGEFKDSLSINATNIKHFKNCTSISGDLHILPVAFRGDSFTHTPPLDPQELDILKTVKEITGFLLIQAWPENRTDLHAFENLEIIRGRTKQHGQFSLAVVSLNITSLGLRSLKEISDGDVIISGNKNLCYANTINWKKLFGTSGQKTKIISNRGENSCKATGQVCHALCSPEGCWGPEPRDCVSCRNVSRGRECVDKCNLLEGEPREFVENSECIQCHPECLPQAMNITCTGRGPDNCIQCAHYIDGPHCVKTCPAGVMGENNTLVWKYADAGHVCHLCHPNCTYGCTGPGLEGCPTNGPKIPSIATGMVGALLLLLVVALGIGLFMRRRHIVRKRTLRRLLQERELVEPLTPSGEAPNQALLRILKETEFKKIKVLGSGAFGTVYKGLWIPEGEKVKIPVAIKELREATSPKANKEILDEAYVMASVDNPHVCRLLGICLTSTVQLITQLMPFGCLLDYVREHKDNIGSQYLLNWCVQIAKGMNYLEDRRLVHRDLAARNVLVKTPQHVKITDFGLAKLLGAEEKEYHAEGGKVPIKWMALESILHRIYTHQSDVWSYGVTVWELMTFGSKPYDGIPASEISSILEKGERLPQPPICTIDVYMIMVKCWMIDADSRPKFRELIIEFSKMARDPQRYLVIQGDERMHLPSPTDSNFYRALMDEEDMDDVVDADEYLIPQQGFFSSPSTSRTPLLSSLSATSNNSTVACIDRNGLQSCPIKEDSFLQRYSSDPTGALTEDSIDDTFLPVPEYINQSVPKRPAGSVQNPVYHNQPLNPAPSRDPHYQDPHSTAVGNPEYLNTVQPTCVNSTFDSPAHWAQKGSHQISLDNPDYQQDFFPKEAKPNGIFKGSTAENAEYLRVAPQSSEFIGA
UniProt P00533, with tags, fused parts or gaps INS770NPG limits assumed: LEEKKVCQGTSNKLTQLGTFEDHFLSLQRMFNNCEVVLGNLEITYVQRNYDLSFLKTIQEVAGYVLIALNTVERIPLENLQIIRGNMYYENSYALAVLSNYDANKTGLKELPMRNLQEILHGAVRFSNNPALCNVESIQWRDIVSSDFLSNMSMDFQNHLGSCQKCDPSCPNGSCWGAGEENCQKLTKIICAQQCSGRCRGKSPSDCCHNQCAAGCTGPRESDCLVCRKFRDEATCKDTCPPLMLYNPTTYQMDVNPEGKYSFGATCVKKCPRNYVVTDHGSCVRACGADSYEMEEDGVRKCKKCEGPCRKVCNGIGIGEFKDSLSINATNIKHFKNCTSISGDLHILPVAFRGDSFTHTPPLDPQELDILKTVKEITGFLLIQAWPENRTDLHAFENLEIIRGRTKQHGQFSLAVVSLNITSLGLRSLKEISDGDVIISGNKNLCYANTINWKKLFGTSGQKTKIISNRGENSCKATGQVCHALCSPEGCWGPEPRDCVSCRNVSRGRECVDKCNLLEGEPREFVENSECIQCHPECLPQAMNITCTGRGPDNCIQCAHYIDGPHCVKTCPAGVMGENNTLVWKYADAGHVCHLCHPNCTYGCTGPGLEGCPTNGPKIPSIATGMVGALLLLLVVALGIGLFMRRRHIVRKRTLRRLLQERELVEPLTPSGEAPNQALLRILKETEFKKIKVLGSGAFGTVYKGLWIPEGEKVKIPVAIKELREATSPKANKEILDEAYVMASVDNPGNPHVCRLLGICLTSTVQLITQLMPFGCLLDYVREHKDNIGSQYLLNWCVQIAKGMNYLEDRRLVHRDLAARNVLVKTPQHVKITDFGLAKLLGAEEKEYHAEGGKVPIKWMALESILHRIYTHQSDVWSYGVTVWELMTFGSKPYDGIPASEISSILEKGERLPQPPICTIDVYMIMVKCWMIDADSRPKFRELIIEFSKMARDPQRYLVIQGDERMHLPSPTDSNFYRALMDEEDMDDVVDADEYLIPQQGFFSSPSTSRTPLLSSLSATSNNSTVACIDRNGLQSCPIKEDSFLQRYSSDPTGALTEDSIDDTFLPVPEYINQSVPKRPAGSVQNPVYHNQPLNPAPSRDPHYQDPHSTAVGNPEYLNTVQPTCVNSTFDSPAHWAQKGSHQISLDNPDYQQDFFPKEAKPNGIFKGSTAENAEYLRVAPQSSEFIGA
UniProt P00533, with tags, fused parts or gaps INS770SVD limits assumed: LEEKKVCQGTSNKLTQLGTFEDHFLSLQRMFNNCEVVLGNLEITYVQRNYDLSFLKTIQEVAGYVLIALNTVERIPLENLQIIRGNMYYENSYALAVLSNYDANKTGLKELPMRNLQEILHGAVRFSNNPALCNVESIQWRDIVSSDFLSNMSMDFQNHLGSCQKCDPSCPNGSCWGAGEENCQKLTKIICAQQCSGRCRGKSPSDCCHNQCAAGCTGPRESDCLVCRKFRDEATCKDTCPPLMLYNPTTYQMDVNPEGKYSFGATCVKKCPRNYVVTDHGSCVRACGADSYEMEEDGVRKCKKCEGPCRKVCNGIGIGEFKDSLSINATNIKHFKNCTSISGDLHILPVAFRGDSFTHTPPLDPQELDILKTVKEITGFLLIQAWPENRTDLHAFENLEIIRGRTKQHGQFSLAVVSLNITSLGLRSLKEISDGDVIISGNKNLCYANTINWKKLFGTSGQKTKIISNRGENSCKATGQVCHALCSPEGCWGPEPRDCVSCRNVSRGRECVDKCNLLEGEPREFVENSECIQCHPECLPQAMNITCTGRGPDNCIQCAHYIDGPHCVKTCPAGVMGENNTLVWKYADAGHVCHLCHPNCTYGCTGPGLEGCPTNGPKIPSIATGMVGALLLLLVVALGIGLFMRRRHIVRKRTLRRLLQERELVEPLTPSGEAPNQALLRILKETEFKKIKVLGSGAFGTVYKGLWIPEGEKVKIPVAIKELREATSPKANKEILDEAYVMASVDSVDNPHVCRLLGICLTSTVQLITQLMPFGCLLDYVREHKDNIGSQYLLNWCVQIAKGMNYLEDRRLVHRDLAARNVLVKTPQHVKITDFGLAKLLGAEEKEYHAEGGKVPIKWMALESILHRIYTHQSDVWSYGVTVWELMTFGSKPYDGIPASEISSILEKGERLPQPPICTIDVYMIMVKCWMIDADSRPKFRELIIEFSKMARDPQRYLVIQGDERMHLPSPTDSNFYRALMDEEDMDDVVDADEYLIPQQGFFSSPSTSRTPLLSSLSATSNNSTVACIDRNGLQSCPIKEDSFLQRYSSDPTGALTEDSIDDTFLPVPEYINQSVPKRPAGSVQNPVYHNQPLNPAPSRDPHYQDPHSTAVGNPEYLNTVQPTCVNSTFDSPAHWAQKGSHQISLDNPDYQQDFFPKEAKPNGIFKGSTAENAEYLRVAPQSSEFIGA
UniProt P00533, with tags, fused parts or gaps INS763FQEA limits assumed: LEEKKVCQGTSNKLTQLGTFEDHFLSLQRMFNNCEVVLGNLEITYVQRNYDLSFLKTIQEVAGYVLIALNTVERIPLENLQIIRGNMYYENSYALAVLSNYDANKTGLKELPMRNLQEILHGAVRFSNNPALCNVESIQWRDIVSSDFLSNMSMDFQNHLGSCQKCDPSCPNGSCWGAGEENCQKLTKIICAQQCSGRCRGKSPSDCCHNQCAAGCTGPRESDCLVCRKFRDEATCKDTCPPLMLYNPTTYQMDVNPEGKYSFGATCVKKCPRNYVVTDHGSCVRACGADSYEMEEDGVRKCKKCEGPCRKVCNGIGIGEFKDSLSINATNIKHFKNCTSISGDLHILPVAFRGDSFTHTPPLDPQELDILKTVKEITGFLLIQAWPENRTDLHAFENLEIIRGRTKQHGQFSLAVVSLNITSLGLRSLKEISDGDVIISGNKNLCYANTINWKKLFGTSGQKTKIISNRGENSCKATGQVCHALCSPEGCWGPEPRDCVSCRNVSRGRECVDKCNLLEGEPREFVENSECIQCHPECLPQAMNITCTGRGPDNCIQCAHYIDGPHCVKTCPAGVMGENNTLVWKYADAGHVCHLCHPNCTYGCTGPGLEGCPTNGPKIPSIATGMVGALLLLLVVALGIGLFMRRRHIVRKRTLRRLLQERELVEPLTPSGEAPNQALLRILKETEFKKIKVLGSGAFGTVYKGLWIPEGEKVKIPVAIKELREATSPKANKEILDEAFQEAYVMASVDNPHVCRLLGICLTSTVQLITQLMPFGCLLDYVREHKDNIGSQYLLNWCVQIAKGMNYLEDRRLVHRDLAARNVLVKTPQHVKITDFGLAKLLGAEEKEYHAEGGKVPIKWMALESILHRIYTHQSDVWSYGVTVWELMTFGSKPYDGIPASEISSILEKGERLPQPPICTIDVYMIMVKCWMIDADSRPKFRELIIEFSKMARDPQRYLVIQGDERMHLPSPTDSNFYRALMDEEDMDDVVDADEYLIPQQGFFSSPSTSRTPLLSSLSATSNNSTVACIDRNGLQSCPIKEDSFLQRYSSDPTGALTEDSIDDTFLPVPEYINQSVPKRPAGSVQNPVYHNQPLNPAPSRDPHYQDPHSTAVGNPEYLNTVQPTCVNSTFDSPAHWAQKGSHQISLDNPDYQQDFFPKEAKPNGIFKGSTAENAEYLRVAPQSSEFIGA

In assay [5] the target is T2, EGFR exon 20 NPG Ins D770_N771 (Ba/F3 cells). In words: Inhibitor activity on EGFR-dependent cell growth (CellTiter-Glo, 72 h), Ba/F3 EGFR exon 20 NPG Ins. As to conditions: read-out: BaF3 NPG IC50.
Assay [6] addresses T1, EGFR exon 20 ASV Ins V769_D770 (Ba/F3 cells). The assay can be described thus: Inhibitor activity on EGFR phosphorylation (pEGFR AlphaLISA, 2 h), Ba/F3 EGFR exon 20 ASV Ins. The following applies: read-out: ASV IC50 (pEGFR).

The structures appear in SMILES notation. Some results are limits rather than exact numbers.

Broadly, the IC50 is the concentration that inhibits the measured activity by half.

`C=CC[C@H]1CNC(=O)c2c1[nH]c(-c1cc[n+]([O-])cc1F)c2Nc1cccc(Cl)c1OC`: the IC50 (on EGFR WT (Ba/F3 cells); in assay [1]; in assay [2]; in assay [3]) was > 1000 nM throughout.
`COc1c(Cl)cccc1Nc1c(-c2ccnc(Nc3cccc(F)c3)n2)[nH]c2c1C(=O)NCC2`: the IC50 in assay [4] is < 100 nM; on EGFR WT (Ba/F3 cells), 100 to 1000 nM; in assay [1] it was < 100 nM; in assay [2] it was < 100 nM; in assay [3], < 100 nM; in assay [5], < 100 nM. The IC50 in assay [6] is < 100 nM.
